Test results published in patent US8461085B2, “Bioherbicide from Festuca spp” (Cornell Research Foundation, Inc., priority 2005, dated 2013).
This is a selection: effects in other tests are not listed, and their absence says nothing.

Tested on: lettuce seedlings (Lactuca sativa L.)
Assay: Soil bioassay, lettuce root growth
Type: in vivo
Conditions: no m-tyrosine

ammonium nitrate (NH4NO3)
Root Length of Lettuce Seedlings (ammonium nitrate 0.125 mM): 6.79 (0.32) cm
Root Length of Lettuce Seedlings (ammonium nitrate 0.25 mM): 7.00 (0.29) cm
Root Length of Lettuce Seedlings (ammonium nitrate 0.5 mM): 7.13 (0.35) cm
Root Length of Lettuce Seedlings (ammonium nitrate 1.0 mM): 6.88 (0.47) cm
